{
  "source": "patent US9980489B2",
  "about": "“Stabilized bio-available soluble silicate solution” (priority 2010, dated 2018)",
  "origin": "cited, not measured here",
  "conditions": "cited from earlier work",
  "data": [
    {"substance": "monosilicic acid Si(OH)4", "values": [
      {"measurement": "lowest pKa value", "result": 9.8}
    ]}
  ]
}
